Data published in patent US11485726B2, “Compound for inhibiting and degrading tyrosine protein kinase ALK” (SHANGHAI MEIZER PHARMACEUTICALS CO., LTD., priority 2017, dated 2022).

By UniProt entry, the sequences of proteins in these tests, tags left out. Chains listed by the source or under a name are the forms on record and can include a tag or linker.
UniProt Q9UM73, with tags, fused parts or gaps: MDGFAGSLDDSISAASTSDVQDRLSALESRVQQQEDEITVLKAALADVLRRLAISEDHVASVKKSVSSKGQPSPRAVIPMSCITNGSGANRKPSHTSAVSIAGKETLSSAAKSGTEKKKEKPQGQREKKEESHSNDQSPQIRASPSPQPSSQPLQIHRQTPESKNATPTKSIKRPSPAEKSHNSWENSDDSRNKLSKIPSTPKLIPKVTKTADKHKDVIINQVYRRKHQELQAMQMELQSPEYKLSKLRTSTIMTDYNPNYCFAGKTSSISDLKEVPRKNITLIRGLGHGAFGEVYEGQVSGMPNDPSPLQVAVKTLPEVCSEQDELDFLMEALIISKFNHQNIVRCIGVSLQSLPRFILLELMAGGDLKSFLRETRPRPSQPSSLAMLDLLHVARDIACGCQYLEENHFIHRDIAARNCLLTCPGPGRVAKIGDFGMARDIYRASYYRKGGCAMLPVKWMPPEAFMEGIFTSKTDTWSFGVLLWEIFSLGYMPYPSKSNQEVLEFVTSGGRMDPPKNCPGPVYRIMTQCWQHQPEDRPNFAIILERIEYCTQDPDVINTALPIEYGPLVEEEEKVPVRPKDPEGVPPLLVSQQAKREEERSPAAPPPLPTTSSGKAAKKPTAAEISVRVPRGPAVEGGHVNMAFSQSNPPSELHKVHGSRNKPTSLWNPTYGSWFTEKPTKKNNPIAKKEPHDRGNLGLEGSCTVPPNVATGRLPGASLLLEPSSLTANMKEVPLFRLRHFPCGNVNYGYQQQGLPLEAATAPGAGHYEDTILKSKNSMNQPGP

Target: ALK kinase (Homo sapiens, UniProt Q9UM73)
Assay: ALK protein degradation activity by Western blot in H2228 cells
Assay type: cell-based
Design: H2228 cell lines (human non-small cell line lung cancer cells, available from ATCC); host or cells: H2228 (human non-small cell lung cancer cells); the other entry of the earlier key: EML4 (Q9HC35, Echinoderm microtubule-associated protein-like 4)
Conditions: NCI-H2228, 24 h, read-out: ALK degradation activity

SMILES: Cc1cc(Nc2ncc(Cl)c(Nc3ccccc3S(=O)(=O)C(C)C)n2)c(OC(C)C)cc1C1CCN(CC(=O)NCCOCCNc2cccc3c2C(=O)N(C2CCC(=O)NC2=O)C3=O)CC1 (stereo not shown) [Compound 34]
- inhibition at 1 µM: > 90%
